# According to patent publication US11324804B2, “Combined CD6 and imipenem therapy for treatment of infectious diseases and related inflammatory processes” (Sepsia Therapeutics, S.L., priority 2016, dated 2022):
# System: CLP-induced polymicrobial septic shock
# Test: Mouse survival after cecal ligation and puncture (CLP)-induced septic shock
# [1] = i.p. at +0 h post-CLP, rshCD6 1.25 mg/kg, Erythromycin 2.75 μg/kg/8 h, FIG. 5A
# [2] = i.p. at +1 h post-CLP, rshCD6 1.25 mg/kg, Erythromycin 2.75 μg/kg/8 h, FIG. 5B
# [3] = +1 h post-CLP, rshCD6 1.25 mg/kg i.v., Meropenem 17 mg/kg/8 h i.p., FIG. 6B
# [4] = i.p. at +0 h post-CLP, rshCD6 1.25 mg/kg, Meropenem 17 mg/kg/8 h, FIG. 6A
Molecule,survival [1] [%],survival [2] [%],survival [3] [%],survival [4] [%]
"CC[C@H]1OC(=O)[C@H](C)[C@@H](O[C@H]2C[C@@](C)(OC)[C@@H](O)[C@H](C)O2)[C@H](C)[C@@H](O[C@@H]2O[C@H](C)C[C@H](N(C)C)[C@H]2O)[C@](C)(O)C[C@@H](C)C(=O)[C@H](C)[C@@H](O)[C@]1(C)O [Erythromycin, (3R,4S,5S,6R,7R,9R,11R,12R,13S,14R)-6-{[(2S,3R,4S,6R)-4-(dimethylamino)-3-hydroxy-6-methyloxan-2-yl]oxy}-14-ethyl-7,12,13-trihydroxy-4-{[(2R,4R,5S,6S)-5-hydroxy-4-methoxy-4,6-dimethyloxan-2-yl]oxy}-3,5,7,9,11,13-hexamethyl-1-oxacyclotetradecane-2,10-dione, reference compound]",16.6,13.3,,
"C[C@@H](O)[C@H]1C(=O)N2C(C(=O)O)=C(S[C@@H]3CN[C@H](C(=O)N(C)C)C3)[C@H](C)[C@H]12 [Meropenem, (4R,5S,6S)-3-(((3S,5S)-5-(Dimethylcarbamoyl)pyrrolidin-3-yl)thio)-6-((R)-1-hydroxyethyl)-4-methyl-7-oxo-1-azabicyclo[3.2.0]hept-2-ene-2-carboxylic acid, reference compound]",,,14.28,15
"rshCD6: recombinantly obtained soluble human CD6 ectodomain (SEQ ID NO: 1) (protein, listed as Homo sapiens) DQLNTSSAESELWEPGERLPVRLTNGSSSCSGTVEVRLEASWEPACGALWDSRAAEAVCRALGCGGAEAASQLAPPTPELPPPPAAGNTSVAANATLAGAPALLCSGAEWRLCEVVEHACRSDGRRARVTCAENRALRLVDGGGACAGRVEMLEHGEWGSVCDDTWDLEDAHVVCRQLGCGWAVQALPGLHFTPGRGPIHRDQVNCSGAEAYLWDCPGLPGQHYCGHKEDAGVVCSEHQSWRLTGGADRCEGQVEVHFRGVWNTVCDSEWYPSEAKVLCQSLGCGTAVERPKGLPHSLSGRMYYSCNGEELTLSNCSWRFNNSNLCSQSLAARVLCSASRSLHNLSTPEVPASVQTVTIESSVTVKIENKESR",22.2,20,26.7,37.5
